This is an account of results in ChEMBL document CHEMBL3297742, “Tetrahydronaphthyridine and dihydronaphthyridinone ethers as positive allosteric modulators of the metabotropic glutamate receptor 5 (mGlu₅)” (J Med Chem, 2014).

Data set [1] can be described thus: Ratio of drug level in brain to plasma in po dosed Sprague-Dawley rat by LC-MS/MS analysis. It is filed as ADME, organism-based. To be noted: brain and plasma, read-out: BPR. In short, it runs like this: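 Oral dose of 56.6 mg/kg in 20% HP-β-CD to Sprague–Dawley rats; brain and plasma taken at 1.5 h. Brain homogenized in 70:30 2-propanol:water; samples diluted with acetonitrile containing carbamazepine internal standard; quantified by C18 gradient LC-ESI-MS/MS against a standard curve.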

The test system of another data set is Rattus norvegicus. Briefly: Ratio of drug level in brain to plasma in Sprague-Dawley rat at 56.6 mg/kg, po after 1.5 hrs by LC-MS/MS analysis.

In the case of `O=C1NCCc2nc(OCc3cccc(F)c3)ccc21`, the Kp in data set [1] turned out to be 1.8. The BPR in the data set on Rattus norvegicus is given as 1.67.
